Measurements as given in publication PMC11986975, “A Cdk5 inhibitor restores cognitive function and alleviates type 2 diabetes in mice” (iScience, 2025).

The chains behind the UniProt entries cited, without tags or fusion partners. Residues count along the entry.
UniProt Q00535, whole entry: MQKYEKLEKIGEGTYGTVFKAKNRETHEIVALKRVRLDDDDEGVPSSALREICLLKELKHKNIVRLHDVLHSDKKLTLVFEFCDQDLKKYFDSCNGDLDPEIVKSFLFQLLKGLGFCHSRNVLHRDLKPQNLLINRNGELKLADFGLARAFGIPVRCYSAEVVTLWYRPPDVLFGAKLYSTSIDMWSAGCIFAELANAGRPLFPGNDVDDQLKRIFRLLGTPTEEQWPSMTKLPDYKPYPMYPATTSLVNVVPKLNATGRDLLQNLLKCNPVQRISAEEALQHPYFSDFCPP
UniProt Q15078, whole entry partner: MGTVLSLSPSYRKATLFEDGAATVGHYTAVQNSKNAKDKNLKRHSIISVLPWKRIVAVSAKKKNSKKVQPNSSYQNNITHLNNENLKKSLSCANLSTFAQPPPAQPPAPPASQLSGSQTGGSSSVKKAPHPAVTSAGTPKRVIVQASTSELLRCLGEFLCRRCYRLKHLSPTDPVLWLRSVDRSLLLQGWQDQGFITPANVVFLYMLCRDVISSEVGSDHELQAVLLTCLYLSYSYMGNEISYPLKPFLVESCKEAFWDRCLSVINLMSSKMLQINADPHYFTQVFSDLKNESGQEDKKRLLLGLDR
UniProt Q15078, 99-307 partner limits assumed: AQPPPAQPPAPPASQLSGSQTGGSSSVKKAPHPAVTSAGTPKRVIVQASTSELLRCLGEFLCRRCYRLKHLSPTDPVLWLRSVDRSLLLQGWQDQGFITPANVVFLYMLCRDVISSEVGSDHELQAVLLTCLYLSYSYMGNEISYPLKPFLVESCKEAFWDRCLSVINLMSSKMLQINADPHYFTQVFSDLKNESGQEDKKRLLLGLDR

Assays:
Cdk5/p25 = Cdk5/p25 (Homo sapiens, UniProt Q00535); test: Cdk5 kinase assay (ADP-Glo) with Cdk5/p25 complex; conditions: read-out: IC50 (nM) Cdk5/p25; 10 μM ATP, histone substrate, inhibitor 0-100 nM
Method: (§1) The test tube Cdk5 Kinase assay was performed utilizing Cdk5/p35 and Cdk5/p25 complexes as kinases, following the modified procedure outlined in a previous study,[52] using a Promega ADP-GloTM Kinase Assay kit. The reaction was carried out with 10 μM ATP and 2 μg of histone as the substrate for Cdk5 complexes. To study the inhibition patterns, 19 Cdk5 inhibitors (BLINK1-19) identified through molecular docking were added to the Cdk5 kinase reaction in increasing concentrations ranging from 0 to 100 nM. The IC50 (half-maximal inhibitory concentration) values of all the inhibitors were calculated based on Log(inhibitor) vs. normalized response using GraphPad software.

Cdk5/p35 = Cdk5/p35 (Homo sapiens, UniProt Q00535); test: Cdk5 kinase assay (ADP-Glo) with Cdk5/p35 complex; conditions: read-out: IC50 (nM) (Cdk5/p35); 10 μM ATP, histone substrate, inhibitor 0-100 nM
Method: as §1

SMILES | IC50 (Cdk5/p25) [nM] | IC50 (Cdk5/p35) [nM]
O=c1oc2ccccc2cc1-c1csc(Cc2nc(-c3ccc(Cl)cc3)cs2)n1 | 88.4 | 47.8
O=C(NCCO)c1cccc(Nc2nc(-c3ccccc3)c3cc(Cl)ccc3n2)c1 | 22.9 | 34.8
